From patent publication US5998435A, “Use of a tachykinin antagonist for the manufacture of a medicament for the treatment of emesis” (priority 1998, dated 1999)

The chains behind the UniProt entries cited, without tags or fusion partners.
UniProt Q5DUB1, whole entry: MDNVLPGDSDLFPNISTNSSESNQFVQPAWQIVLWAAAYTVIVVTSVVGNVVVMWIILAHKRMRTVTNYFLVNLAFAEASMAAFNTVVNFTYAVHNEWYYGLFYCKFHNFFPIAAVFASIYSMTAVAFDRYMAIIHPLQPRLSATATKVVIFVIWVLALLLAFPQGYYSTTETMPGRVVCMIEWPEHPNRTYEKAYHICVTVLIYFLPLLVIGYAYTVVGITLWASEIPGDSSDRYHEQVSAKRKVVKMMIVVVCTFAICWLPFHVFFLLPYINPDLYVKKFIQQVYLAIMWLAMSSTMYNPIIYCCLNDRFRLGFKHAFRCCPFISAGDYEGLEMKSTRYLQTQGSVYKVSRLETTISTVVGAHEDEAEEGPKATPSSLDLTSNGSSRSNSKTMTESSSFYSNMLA

Molecular target: T1, NK1 receptor (Meriones unguiculatus, UniProt Q5DUB1)
T1 construct: centrally NK1 receptor mediated foot-tapping response was examined in the gerbil; from tissue; host or cells: whole animal (gerbil), central NK1 receptors, i.c.v. agonist
Assay: [Sar9,Met(O2)11]substance P-induced hind foot tapping in the gerbil
Format: in vivo
Settings: i.c.v., 1-100 nmol/animal
Protocol: FIG. 3. […] The duration of foot tapping (sec) was recorded for 5 minutes immediately following recovery of the animals righting reflex.
Gerbils were anaesthetized with isoflurane, and an incision was made to expose the skull. […] Animals were placed individually into observation boxes, and duration of hind foot tapping was recorded for 5 minutes immediately following recovery of the animals' righting reflex.

In the case of [Sar^9, Met(O2)^11 ]substance P, the “MED for increase of foot tapping” value is reported as 10 nmol.
